Reference: patent US7915270B2, “Oxazole ketones as modulators of fatty acid amide hydrolase” (The Scripps Research Institute, priority 2006, dated 2011)

Amino acid sequences for entries named in this document (tags omitted).
UniProt P97612, whole entry: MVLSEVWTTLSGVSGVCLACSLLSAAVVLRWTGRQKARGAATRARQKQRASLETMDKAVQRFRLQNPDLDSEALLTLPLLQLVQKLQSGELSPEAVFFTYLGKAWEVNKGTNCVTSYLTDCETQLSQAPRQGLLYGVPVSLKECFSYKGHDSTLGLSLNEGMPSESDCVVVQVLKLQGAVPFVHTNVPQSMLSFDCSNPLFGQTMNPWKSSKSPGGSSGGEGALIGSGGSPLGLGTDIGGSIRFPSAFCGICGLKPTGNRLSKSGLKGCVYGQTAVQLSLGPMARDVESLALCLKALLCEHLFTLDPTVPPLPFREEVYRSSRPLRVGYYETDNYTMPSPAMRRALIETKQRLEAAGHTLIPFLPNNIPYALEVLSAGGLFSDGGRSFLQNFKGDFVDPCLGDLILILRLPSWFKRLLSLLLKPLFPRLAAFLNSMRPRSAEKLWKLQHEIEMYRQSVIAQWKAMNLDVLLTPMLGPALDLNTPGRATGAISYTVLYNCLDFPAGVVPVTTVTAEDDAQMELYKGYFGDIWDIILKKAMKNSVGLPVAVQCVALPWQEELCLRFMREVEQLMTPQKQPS
UniProt O00519, whole entry: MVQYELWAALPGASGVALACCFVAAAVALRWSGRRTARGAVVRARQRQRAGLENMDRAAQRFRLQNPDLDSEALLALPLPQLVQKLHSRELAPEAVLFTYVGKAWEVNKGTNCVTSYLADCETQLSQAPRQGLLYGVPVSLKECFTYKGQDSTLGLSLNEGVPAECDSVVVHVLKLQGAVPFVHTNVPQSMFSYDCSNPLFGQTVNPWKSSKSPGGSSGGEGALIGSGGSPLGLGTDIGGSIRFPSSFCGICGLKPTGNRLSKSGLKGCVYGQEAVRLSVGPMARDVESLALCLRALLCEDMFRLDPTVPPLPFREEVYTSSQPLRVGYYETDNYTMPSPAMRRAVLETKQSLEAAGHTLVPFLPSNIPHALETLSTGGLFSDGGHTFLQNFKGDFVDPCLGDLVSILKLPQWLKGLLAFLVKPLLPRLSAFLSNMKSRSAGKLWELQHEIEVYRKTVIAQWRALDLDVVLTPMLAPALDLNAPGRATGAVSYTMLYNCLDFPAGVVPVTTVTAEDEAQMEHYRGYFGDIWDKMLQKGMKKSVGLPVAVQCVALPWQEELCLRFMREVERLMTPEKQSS

Assays:
[1] = biological target: T1, Rat FAAH (Rattus norvegicus, UniProt P97612); assay: Assay Method 2: FAAH assay, 3H-anandamide hydrolysis in cell homogenate (SK-N-MC cells transfected with rat FAAH); assay type: biochemical; conditions: 3H-AEA 80 nM, rt 1 h, pH 9
T1 construct: expressed in transfected cells
Experimental: A. Transfection of Cells with Rat FAAH
(§1) A 10-cm tissue culture dish with a confluent monolayer of SK—N-MC cells was split 2 days (d) prior to transfection. Using sterile technique, the media was removed and the cells were detached from the dish by the addition of trypsin. One fifth of the cells were then placed onto a new 10-cm dish. Cells were grown in a 37° C. incubator with 5% CO2 in Minimal Essential Media Eagle with 10% Fetal Bovine Serum. After 2 d, cells were approximately 80% confluent. These cells were removed from the dish with trypsin and pelleted in a clinical centrifuge. The pellet was re-suspended in 400 μL complete media and transferred to an electroporation cuvette with a 0.4 cm gap between the electrodes. Supercoiled rat FAAH cDNA (1 μg) was added to the cells and mixed. The voltage for the electroporation was set at 0.25 kV, and the capacitance was set at 960 μF. After electroporation, the cells were diluted into complete media (10 mL) and plated onto four 10-cm dishes. Because of the variability in the efficiency of electroporation, four different concentrations of cells were plated. The ratios used were 1:20, 1:10, and 1:5, with the remainder of the cells being added to the fourth dish. The cells were allowed to recover for 24 h before adding the selection media (complete media with 600 μg/mL G418). After 10 d, dishes were analyzed for surviving colonies of cells. […]

[2] = biological target: FAAH (Homo sapiens, UniProt O00519); assay: Assay Method 1B: FAAH assay, 3H-anandamide hydrolysis in cell homogenate (T84 or SK-N-MC cells transfected with human FAAH); assay type: biochemical; design: expressed in transfected cells; conditions: 3H-AEA 80 nM, rt 1 h, pH 9
Experimental: as §1, with “Transfection of Cells with Human FAAH A 10-cm” for “A 10-cm”, “electrodes. Supercoiled human FAAH cDNA” for “electrodes. Supercoiled rat FAAH cDNA”

[3] = biological target: FAAH (Rattus norvegicus, UniProt P97612); assay: Assay Method 1A: FAAH enzyme assay, 14C-oleamide hydrolysis, solubilized liver plasma membrane extract; conditions: read-out: Assay 1A Ki, liver plasma membrane extract containing FAAH, pH 9.0, 20-23 °C, Dixon method;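 also: ki obtained by Dixon analysis, taking the x-intercept of inhibitor concentration versus reciprocal rate plots at fixed substrate level and correcting for substrate concentration relative to Km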

IC50 [1]: 70 nM | IC50 [2]: 6 nM | Ki [3]: 8 nM
Structure (SMILES): COC(=O)c1cccc(-c2cnc(C(=O)CCCCCCc3ccccc3)o2)n1 [Example 33, Methyl 6-(2-(7-phenylheptanoyl)oxazol-5-yl)picolinate]
